Source: patent US20020183271A1, “Methods of treatment involving human MDA-7” (priority 2000, published 2002)

Experiments:
SkBr3 (Her2+) = assay: Herceptin / Ad-mda7 trypan blue exclusion assay; assay type: cell-based; conditions: Herceptin alone, 1 μg/mL, three days
Description: (§1) The breast cancer SkBr3 (Her2+) and MCF-7 (Her2-) cell lines were both obtained from ATCC. Cells were plated at a density of 1000 cells/well in Nunc 2-chamber slides and propagated in DMEM medium with 10% FBS. The following day, the cells were left untreated or treated with Ad-mda7 at (increasing MOIs: 0, 500, 1000 and 2000 vp/cell) without (M series) or with Herceptin (M+H series) at a final concentration of 1 μg/mL. The cells were washed after 3 hours and growth media (with or without Herceptin, as indicated) was replaced. Three days later viable cells were counted using the trypan blue exclusion assay (average of 3-4 fields) and plotted as shown in FIG. 15. Herceptin alone yields approximately 12% dead cells in both cell lines.

MCF-7 (Her2-) = assay: Herceptin / Ad-mda7 trypan blue exclusion assay; assay type: cell-based, human; conditions: Herceptin alone, 1 μg/mL, three days
Description: as §1

Substance: Herceptin: immunotherapy used at 1 μg/mL on breast cancer cell lines
- dead cells (SkBr3 (Her2+)): approximately 12%
- dead cells (MCF-7 (Her2-)): approximately 12%
